According to patent US8119168B2, “Personal care compositions comprising a zinc containing material in an aqueous surfactant composition” (The Procter & Gamble Company, priority 2002, dated 2012):

Assay: Zincon metallochromic dye test for available Zn^2+ (visual color change orange to blue)
Assay type: physicochemical
Settings: ZCM ~30 mg/10 ml water, pH 7-11, binary visual assessment
Text: Zinc-containing materials (ZCMs) differ with respect to how strongly the zinc ion (Zn^2+) is held by counterions in the crystal lattice. The benefits discussed herein depend upon having available Zn^2+. […] The response is a binary visual assessment of whether or not the color changes indicating zinc-binding.
The method is based on the commercial metallochromic dye zincon. Zincon changes from an orange color to blue upon binding zinc and provides the basis for detecting available Zn^2+:
The specific procedure involves making a stock solution of zincon in ethanol (˜50 mg/10 ml ethanol). The ZCM is then added to water (˜30 mg/10 ml water) and agitated (pH range should be 7-11). Three to four drops of zincon solution are then added to the ZCM in water, agitated and a visual assessment of color change made.

**Q.** For zinc salicylate, which “available Zn^2+ (zincon color change)” value is on record?
**A.** have available zinc
